Binding of CDR-mutated scFvs to a peptide of the spike HR2 region

The target is the same throughout: PDVDLGDISGINAS, from the HR2 region of SARS-CoV-2 spike.

The variants keep the heavy chain, the linker and the frameworks of Ab-14 (scFv order VH, three GGGGS repeats, VL).
VH: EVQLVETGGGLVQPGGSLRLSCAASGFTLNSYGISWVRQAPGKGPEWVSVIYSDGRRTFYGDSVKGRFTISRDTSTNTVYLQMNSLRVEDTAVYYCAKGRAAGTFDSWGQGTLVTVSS
VL: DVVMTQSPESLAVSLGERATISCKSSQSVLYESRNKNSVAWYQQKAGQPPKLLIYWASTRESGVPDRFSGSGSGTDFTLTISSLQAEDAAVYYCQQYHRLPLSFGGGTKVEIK

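This is the validation round: designs drawn from the data on random variants, tested in the same kind of assay. Group labels follow the data file (Ctrl: baseline library sampled from a position-specific scoring matrix, with some repeated check sequences; GP: Gaussian process model; Gen: genetic algorithm; a sequence that several methods proposed may carry one label only). In AlphaSeq, yeast of one mating type display the scFv and yeast of the other type display the target. Binding brings cells together so that they mate, and sequencing counts the barcode pairs among the diploids. A regression on co-assayed BCL2-family reference pairs converts the normalised counts of each replicate to an apparent Kd. The assay was run in six technical replicates.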

Positions count from residue 1 of the parent VL; V29H puts H in place of V.
Scale: log10 of Kd in nM, estimated from mating counts; low values are strong binders.
A pair that was not seen in that replicate is written "ND"; this usually means weak binding, but a binder can also be missed.
Some sequences occur more than once in the pool; their replicates are listed entry by entry, parted by semicolons.
The authors averaged sequences with at least three values out of six and counted those with two or fewer as poor binders.
As a blank, each scFv also met three strains without target: over all light chain designs, 4% of these pairings were detected, typically at 2.64 and seldom below 1.59. The control count says in how many pairings with the empty strains this scFv gave a signal, with their mean in brackets.
The parent sequence was in this pool as ten entries: three were never detected, three once, and four in most replicates, with averages from 0.34 to 2.37.
Values of this round are not directly comparable with the first-round values of the same sequences.

| # | changes | group | log10 Kd, replicates | signal with controls |
|---|---|---|---|---|
| 1 | V29H/S62P/H98F | Ctrl | ND / -0.49 / ND / 0.49 / 0.07 / 0.67 | 0/18 |
| 2 | K24V/S62A | Ctrl | ND / ND / ND / 1.33 / ND / ND | 1/18 (3.28) |
| 3 | V29D/R34S/W56N/Q96Y | Ctrl | 1.34 / 1.62 / 1.18 / 1.66 / 1.58 / 1.59 | 3/18 (2.58) |
| 4 | S26F/S28E/V29H/S62A/Q96G/H98T | Ctrl | ND / 1.94 / ND / ND / ND / ND | 0/18 |
| 5 | N35D/W56Q | Ctrl | 0.74 / 0.66 / 0.38 / 0.33 / 0.65 / 0.61 | 1/18 (3.01) |
| 6 | N35Q/W56E | Ctrl | 0.63 / 0.36 / 0.32 / 0.09 / 0.24 / 0.39 | 1/18 (3.59) |
| 7 | K24R/Y31T/R34A | Ctrl | 1.16 / 1.07 / 0.94 / 0.98 / 1.48 / 1.41 | 0/18 |
| 8 | L30G/A57C/Q96R | Ctrl | ND / ND / ND / ND / ND / ND | 0/18 |
| 9 | S25C/R34T/W56H | Ctrl | 0.69 / 0.45 / 0.42 / 0.66 / 0.60 / 0.53 | 0/18 |
| 10 | E32Q/W56Q | Ctrl | 1.60 / 2.17 / ND / 1.92 / 3.39 / 1.62 | 1/18 (2.82) |
| 11 | S62D/H98A | Ctrl | 1.68 / 1.44 / 0.90 / 0.75 / 1.02 / 1.50 | 0/18 |
| 12 | S28G/L30V/Y31D/R34F/E61R | Ctrl | 2.17 / ND / ND / 2.65 / ND / ND | 0/18 |
| 13 | Y31M | Ctrl | ND / ND / 2.16 / 2.23 / 2.25 / 2.15 | 0/18 |
| 14 | S26L/E61W/H98R/R99E | Ctrl | ND / ND / ND / ND / ND / ND | 0/18 |
| 15 | Q27E/V29F/W56A/S62W/Y97V | Ctrl | ND / ND / 2.17 / ND / ND / ND | 1/18 (3.68) |
| 16 | Y31Q/S58D/S62D | Ctrl | 1.70 / 1.32 / 1.61 / 1.09 / 1.53 / 1.35 | 1/18 (2.77) |
| 17 | W56D/T59L/H98E | Ctrl | 0.59 / 0.45 / 0.31 / 0.14 / 0.52 / 0.21 | 0/18 |
| 18 | S26H/Q27D/S28A | Ctrl | 1.66 / 2.09 / 1.45 / 1.24 / 0.79 / 0.89 | 0/18 |
| 19 | S25M/W56D | Ctrl+GP_Gen | 0.27 / 0.04 / -0.08 / 0.07 / 0.05 / 0.02; -0.10 / -0.25 / -0.35 / -0.54 / -0.08 / -0.17 | 1/36 (2.06) |
| 20 | S25V/S26T/L30N/W56N/T59K/R99M | Ctrl | 0.60 / 0.48 / 0.56 / 0.38 / 0.28 / 0.20 | 0/18 |
| 21 | S25P/S26P/S33Q | Ctrl | ND / ND / 1.37 / 2.66 / ND / ND | 0/18 |
| 22 | S25V/L30Q/K36F/W56N/E61V | Ctrl | -0.11 / 0.08 / 0.08 / -0.05 / -0.31 / 0.18 | 1/18 (2.14) |
| 23 | S33F/W56N | Ctrl | 0.63 / 0.50 / 0.51 / 0.83 / 0.56 / 0.66 | 0/18 |
| 24 | K36Q/T59E | Ctrl | 1.34 / 1.45 / 1.13 / 1.13 / 1.38 / 1.38 | 1/18 (2.46) |
| 25 | S38N/T59M/R60H/E61N/H98M | Ctrl | ND / ND / ND / 1.25 / ND / ND | 1/18 (3.00) |
| 26 | S25M/V29S/L30Q/S33E/R34H/K36A/W56Y/S103L | Ctrl | 0.95 / 1.18 / 0.96 / 1.04 / 0.98 / 1.35 | 1/18 (3.40) |
| 27 | K24H/W56Y/T59V | Ctrl | ND / 1.31 / 1.46 / 1.36 / 1.86 / 1.33 | 0/18 |
| 28 | S25Y/Q27K/V29L/R60C | Ctrl | ND / ND / ND / ND / ND / ND | 1/18 (1.26) |
| 29 | K24H/S25M/V39I | Ctrl | 1.20 / 1.36 / ND / 1.14 / 0.61 / 1.61 | 0/18 |
| 30 | R34N/N37Q/T59Q/E61V/Y97V | Ctrl | ND / ND / ND / ND / ND / ND | 1/18 (2.61) |
| 31 | V29D/R34N | Ctrl | 0.51 / 0.52 / 0.49 / 0.57 / 1.03 / 1.34 | 0/18 |
| 32 | Y31K/E61G | Ctrl | ND / ND / ND / ND / ND / ND | 1/18 (1.96) |
| 33 | S26N/E32T/W56G | Ctrl | 0.98 / 0.62 / 0.32 / 0.39 / 0.76 / 0.88 | 1/18 (2.77) |
| 34 | K24E/R34F/S103C | Ctrl | ND / ND / ND / ND / ND / ND | 0/18 |
| 35 | V29L | Ctrl | 0.72 / 1.35 / 1.83 / 1.54 / 1.24 / 1.54 | 1/18 (2.79) |
| 36 | E32D/Q95V | Ctrl | ND / ND / ND / ND / ND / ND | 1/18 (3.65) |
| 37 | S33E/K36G/W56E | Ctrl | 1.12 / 1.09 / 0.59 / 0.97 / 0.98 / 1.24 | 0/18 |
| 38 | E61R/S103I | Ctrl | ND / ND / ND / ND / ND / ND | 0/18 |
| 39 | K24A/V29G/Y31S/W56D/S62D | Ctrl | 0.27 / -0.13 / -0.15 / -0.14 / -0.13 / 0.15 | 0/18 |
| 40 | V29Q/L30M/Y31D/R34G/N35A | Ctrl | 0.57 / 0.62 / 1.27 / 1.00 / 0.86 / 0.76 | 1/18 (3.32) |
| 41 | W56G/S58K | Ctrl | 0.99 / 1.53 / 1.11 / 1.10 / 1.42 / 1.32 | 1/18 (3.15) |
| 42 | K24M/T59Q | Ctrl | ND / ND / ND / ND / 1.67 / ND | 0/18 |

The opening 3 entries, copied out:

| changes | group | log10 Kd, replicates | signal with controls |
|---|---|---|---|
| V29H/S62P/H98F | Ctrl | ND / -0.49 / ND / 0.49 / 0.07 / 0.67 | 0/18 |
| K24V/S62A | Ctrl | ND / ND / ND / 1.33 / ND / ND | 1/18 (3.28) |
| V29D/R34S/W56N/Q96Y | Ctrl | 1.34 / 1.62 / 1.18 / 1.66 / 1.58 / 1.59 | 3/18 (2.58) |

From the AlphaSeq antibody data of Li et al. 2023 (doi:10.1038/s41467-023-39022-2), copy in the FLAb collection.